Chains of the proteins cited; added tags and fusions are not shown.
UniProt P34972, whole entry: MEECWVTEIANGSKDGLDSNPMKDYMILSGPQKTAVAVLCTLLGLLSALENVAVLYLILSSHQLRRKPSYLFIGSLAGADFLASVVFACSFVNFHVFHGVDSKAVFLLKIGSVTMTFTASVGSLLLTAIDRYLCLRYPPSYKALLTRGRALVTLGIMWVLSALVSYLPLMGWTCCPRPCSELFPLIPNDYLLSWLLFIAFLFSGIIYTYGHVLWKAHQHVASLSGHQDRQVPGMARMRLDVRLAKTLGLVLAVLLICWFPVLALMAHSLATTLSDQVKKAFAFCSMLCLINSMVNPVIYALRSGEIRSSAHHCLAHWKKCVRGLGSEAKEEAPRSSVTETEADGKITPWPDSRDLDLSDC
UniProt P21554, whole entry: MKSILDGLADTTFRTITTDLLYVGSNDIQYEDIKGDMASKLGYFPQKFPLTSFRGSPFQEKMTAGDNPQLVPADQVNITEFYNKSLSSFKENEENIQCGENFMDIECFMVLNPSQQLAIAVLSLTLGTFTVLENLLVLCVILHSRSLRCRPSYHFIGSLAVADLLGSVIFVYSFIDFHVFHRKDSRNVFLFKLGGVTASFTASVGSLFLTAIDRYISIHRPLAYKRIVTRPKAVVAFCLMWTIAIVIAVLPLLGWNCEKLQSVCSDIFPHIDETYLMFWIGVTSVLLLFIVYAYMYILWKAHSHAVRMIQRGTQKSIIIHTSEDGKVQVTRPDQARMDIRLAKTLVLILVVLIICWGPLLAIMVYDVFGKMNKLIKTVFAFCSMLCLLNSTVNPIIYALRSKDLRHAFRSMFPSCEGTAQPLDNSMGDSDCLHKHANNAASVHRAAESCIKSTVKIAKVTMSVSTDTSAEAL

In patent US8372874B2, “Compounds which selectively modulate the CB2 receptor” (Boehringer Ingelheim International GmbH, priority 2008, dated 2013):

Key:
human CB2R = human CB2R (Homo sapiens, UniProt P34972); experiment: CB2R mediated modulation of cAMP synthesis; type: cell-based; conditions: read-out: CB2 EC50; CHO cells expressing human CB2R; inhibition of forskolin-stimulated cAMP synthesis
Experimental: B. CB2R Mediated Modulation of cAMP Synthesis:
Compounds of the invention are evaluated for their CB2 agonist or inverse agonistic activity in accordance with the following experimental method.
(§1) CHO cells expressing human CB2R (Euroscreen) are plated at a density of 5000 cells per well in 384 well plates and incubated overnight at 37° C. After removing the media, the cells are treated with test compounds diluted in stimulation buffer containing 1 mM IBMX, 0.25% BSA and 10 uM Forskolin. The assay is incubated for 30 minutes at 37° C. Cells are lysed and the cAMP concentration is measured using DiscoverX-XS cAMP kit, following the manufacturer's protocol. In this setting, agonists will decrease forskolin induced production of cAMP while inverse agonists will further increase forskolin induced production of cAMP. EC50 of agonists are calculated as follows. The maximal amount of cAMP produced by forskolin compared to the level of cAMP inhibited by 1 uM CP55940 is defined as 100%. The EC50 value of each test compound is determined as the concentration at which 50% of the forskolin-stimulated cAMP synthesis is inhibited. Data is analyzed using a four-parameter logistic model. (Model 205 of XLfit 4.0).

human CB1R = human CB1R (Homo sapiens, UniProt P21554); experiment: CB1R mediated modulation of cAMP synthesis; type: cell-based; conditions: read-out: CB1 EC50; CHO cells expressing human CB1R; inhibition of forskolin-stimulated cAMP synthesis
Experimental: C. CB1R Mediated Modulation of cAMP Synthesis:
Compounds of the invention are evaluated for their CB1 agonist or inverse agonistic activity in accordance with the following experimental method.
as §1, with “CB1R” for “CB2R”

Row | SMILES | EC50 (human CB2R) [nM] | EC50 (human CB1R) [nM]
1 | CC(C)(C)Cc1nc2cc(S(=O)(=O)C(C)(C)C(=O)Nc3cc(C(C)(C)CO)no3)ccc2n1CC1CC1 | 8 | > 20000
2 | CC(C)(COC(=O)C(C)(C)S(=O)(=O)CCCC(F)(F)F)c1cc(NC(=O)C(C)(C)S(=O)(=O)CCCC(F)(F)F)on1 | 402 | > 50000
3 | COCC(C)(C)c1cc(NC(=O)C(C)(C)S(=O)(=O)c2ccc3c(c2)nc(CC(C)(C)C)n3CC2CC2)no1 | 20 | > 20000
4 | COCC(C)(C)c1cc(NC(=O)C(C)(C)S(=O)(=O)c2ccc3c(c2)nc(CC(C)(C)C)n3CC2CC2)on1 | 2.5 | > 20000
5 | CC(C)(C)Cc1nc2cc(S(=O)(=O)C(C)(C)C(=O)Nc3cc(C(C)(C)CO)on3)ccc2n1CC1CC1 | 21 | > 20000
